The numbers were not newly measured in publication PMC4843776 (Biochemistry, 2016), which cites them from elsewhere.

Sequences of proteins named here, by UniProt entry; tags and fusion partners are left off. Residues count along the entry.
UniProt P49023, 141-160: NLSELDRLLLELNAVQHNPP
UniProt Q14289, 871-1005: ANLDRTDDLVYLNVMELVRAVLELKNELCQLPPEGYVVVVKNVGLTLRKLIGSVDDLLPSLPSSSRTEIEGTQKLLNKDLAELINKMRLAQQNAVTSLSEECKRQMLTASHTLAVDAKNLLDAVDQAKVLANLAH
UniProt Q14289, 868-1009: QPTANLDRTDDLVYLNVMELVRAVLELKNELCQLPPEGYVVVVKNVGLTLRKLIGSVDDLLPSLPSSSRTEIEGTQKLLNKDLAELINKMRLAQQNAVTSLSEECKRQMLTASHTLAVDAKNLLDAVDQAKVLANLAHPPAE

Holding throughout (conditions): cited from earlier work
For series [1], the target named is paxillin LD2 LD2 motif peptide (Homo sapiens) (UniProt P49023).
The target is the same in series [2]. This is another data set of the same source.
For series [3], the target named is Paxillin LD2 peptide LD2 (Homo sapiens) (UniProt P49023).
Series [4] shares this target. The source holds these as a separate data set.

Read-outs that look alike come from different tables or passages of the source.

Regarding “Pyk2 FAT (871-1005), H1/H4 site (from UniProt Q14289)”, in series [1], the dissociation constant (Kd) (as a rule, the equilibrium constant for the complex coming apart) is 35.2 µM. “Pyk2 FAT (871-1005), H2/H3 site (from UniProt Q14289)”: the Kd in series [2] is 6.9 µM.

As for “Pyk2 FAT H1/H4 site (from UniProt Q14289)”, in series [3], the dissociation constant (Kd) was 35.2 µM. Consider “Pyk2 FAT H2/H3 site (from UniProt Q14289)”, for which the Kd in series [4] was 6.9 µM.
